Target: tau (Homo sapiens, UniProt P10636)
Experiment: hot saturation binding assay of [^3H]-6 in AD brain homogenates
Settings: read-out: dissociation constant, FIG. 1
Description: The frozen human brain samples of Alzheimer's disease (AD) were purchased from Analytic Biological Services Inc. They were postmortem tissue from donors with clinical diagnosis of AD. As much of the white matter was dissected out of the frontal cortex in order to enrich the tissue preparations for gray matter. Brain homogenates of gray matter enriched frontal cortex were prepared by homogenizing the tissue in ice cold Phosphate Buffered Saline (PBS), pH 7.4 at 80 mg wet weight tissue per 1 mL for 45 seconds at 4° C. on setting 16 of Polytron. The homogenate was further diluted with ice cold PBS to 30 mg wet weight tissue per 1 mL and homogenized for an additional minute as described above. Homogenates were aliquoted in 5 ml/tube and store at −70° C. until use. […] Self-block with unlabeled compound was used to determine non-specific binding. Saturation data was analyzed using Graphpad/Prism software.

Chains of the proteins cited; added tags and fusions are not shown. Residues count along the entry.
UniProt P10636, 2-758 limits assumed: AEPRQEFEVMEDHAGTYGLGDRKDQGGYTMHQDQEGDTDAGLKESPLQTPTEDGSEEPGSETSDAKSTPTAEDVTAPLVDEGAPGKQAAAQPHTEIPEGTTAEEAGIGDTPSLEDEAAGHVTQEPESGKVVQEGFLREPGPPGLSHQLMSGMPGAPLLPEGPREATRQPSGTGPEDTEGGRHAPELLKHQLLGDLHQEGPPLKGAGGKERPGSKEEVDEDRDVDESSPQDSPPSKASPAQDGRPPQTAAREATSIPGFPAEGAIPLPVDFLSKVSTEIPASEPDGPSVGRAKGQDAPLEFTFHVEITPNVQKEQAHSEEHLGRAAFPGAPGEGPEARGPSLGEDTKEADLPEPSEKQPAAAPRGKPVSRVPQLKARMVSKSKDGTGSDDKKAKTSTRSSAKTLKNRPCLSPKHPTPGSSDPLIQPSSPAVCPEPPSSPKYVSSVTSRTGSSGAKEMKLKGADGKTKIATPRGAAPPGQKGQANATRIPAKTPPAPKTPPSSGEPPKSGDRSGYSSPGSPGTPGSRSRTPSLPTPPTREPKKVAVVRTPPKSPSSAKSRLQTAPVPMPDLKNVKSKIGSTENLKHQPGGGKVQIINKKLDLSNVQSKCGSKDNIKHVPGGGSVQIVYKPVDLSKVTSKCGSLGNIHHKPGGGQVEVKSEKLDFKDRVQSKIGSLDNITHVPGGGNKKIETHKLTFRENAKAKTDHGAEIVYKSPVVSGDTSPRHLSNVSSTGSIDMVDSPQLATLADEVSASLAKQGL

Kd: 0.2 nM
SMILES: [3H]c1cc2ccn(-c3cc4ccccc4c([3H])n3)c2c([3H])n1

Reference: US10022461B2, “Pyrrolo[2,3-C]pyridines as imaging agents for neurofibrilary tangles” (MERCK SHARP & DOHME CORP., priority 2014, dated 2018)
